The target in one experiment is DPP-4 (Rattus norvegicus, UniProt P14740). Particulars: 7 µmol/kg oral; 24 h after administration; sham and 5/6N rats pooled; mean±SEM; control 82156±20673 (Table 1 gives fluorescence units).
The next experiment has as its system 5/6N rats. Nature of the experiment: Markers of kidney function before and after drug administration in 5/6N rats. It counts as in vivo, rat. The following applies: before drug administration, 7.0 µmol/kg group, mean±SEM. As for the experimental part:
Creatinine concentration was measured by the Jaffe colorimetric method. Creatinine clearance was estimated as described previously.
For each parameter, the log10-transformed values were analyzed separately using an ANOVA for repeated measurements with factors for experimental group and time as fixed effects. […] These statistical analyses were carried out with the software product SAS (SAS Institute, Cary, NC USA), version 9.2.

Chains of the proteins cited; added tags and fusions are not shown. Residues count along the entry.
UniProt P14740, 37-767 limits assumed: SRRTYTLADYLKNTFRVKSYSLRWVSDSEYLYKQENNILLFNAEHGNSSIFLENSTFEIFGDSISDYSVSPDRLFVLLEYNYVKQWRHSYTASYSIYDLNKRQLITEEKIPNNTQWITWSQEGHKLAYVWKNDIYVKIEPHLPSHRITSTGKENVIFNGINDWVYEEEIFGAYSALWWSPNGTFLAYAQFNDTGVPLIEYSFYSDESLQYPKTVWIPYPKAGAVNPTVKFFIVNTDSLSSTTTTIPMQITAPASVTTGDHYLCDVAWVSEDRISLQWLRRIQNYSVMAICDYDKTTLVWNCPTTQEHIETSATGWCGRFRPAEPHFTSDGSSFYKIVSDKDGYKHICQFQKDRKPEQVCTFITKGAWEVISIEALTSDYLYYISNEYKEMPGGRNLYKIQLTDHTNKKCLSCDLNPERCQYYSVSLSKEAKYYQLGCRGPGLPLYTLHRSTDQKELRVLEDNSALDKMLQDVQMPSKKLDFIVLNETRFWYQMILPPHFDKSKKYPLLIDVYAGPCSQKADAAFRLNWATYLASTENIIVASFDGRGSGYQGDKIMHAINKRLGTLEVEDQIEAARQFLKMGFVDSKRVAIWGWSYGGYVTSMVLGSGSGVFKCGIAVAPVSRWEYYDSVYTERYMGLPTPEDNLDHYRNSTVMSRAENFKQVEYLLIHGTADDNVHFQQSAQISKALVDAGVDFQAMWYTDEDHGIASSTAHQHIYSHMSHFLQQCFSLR

In turn, `N[C@@H](CC(=O)N1CCn2c(nnc2C(F)(F)F)C1)Cc1cc(F)c(F)cc1F` [Sitagliptin, sitagliptin] showed a DPP-4 activity on DPP-4 of 57219±21531. `Cn1c(=O)cc(N2CCC[C@@H](N)C2)n(Cc2ccccc2C#N)c1=O` [Alogliptin, alogliptin] gave an Osteopontin with 5/6N rats of 50.9 ± 5.5 ng/mL. The compound further gave a DPP-4 activity at DPP-4 of 50874±8958.
